Experimental data from US10548896B2, “Treatment of relapsed and/or refractory solid tumors and non-Hodgkin's lymphomas” (CELGENE QUANTICEL RESEARCH, INC., priority 2016, dated 2020).

Experiment: 4-week toxicity study with 4-week recovery in mice (incl. toxicokinetics)

COc1ccc(-c2c(-c3ccc(C#N)c(F)c3)nc(N3CCC(N)CC3)n(C)c2=O)cc1F [Compound A, 4-[2-(4-amino-piperidin-1-yl)-5-(3-fluoro-4-methoxy-phenyl)-1-methyl-6-oxo-1,6-dihydro-pyrimidin-4-yl]-2-fluoro-benzonitrile]
platelet and reticulocyte counts (45 mg base/kg/dose): Marked decreases in platelet and reticulocyte counts | animals sacrificed in moribund condition (45 mg base/kg/dose QDx5/week, TK subgroup): Five
